According to PubChem BioAssay AID1159580 (chemical genetic matrix, 2015):
This is a selection; strong and weak results do not stand in their true shares. The source made the active and inactive calls. Cut-off read from the data, not from the text of the source: active = normalized growth mostly below about 0.91 (no sharp cut-off); inconclusive = no clear call, values can overlap the other calls; inactive = mostly above about 0.92.

Assay: chemical genetic growth profiling, strain panel (AID 1159580);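 note: tested at 20 µM; growth read once vehicle control cultures reached saturation at 30 °C; 1 = growth at the plate median or of vehicle wells; lower values mean less growth of the strain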
Details: S. cerevisiae deletion strains, growth OD

Measured: normalized growth

OCCSCCO
inactive: locus YAL021C, strain ccr4, active compounds read low 0.969 | locus YAL026C, strain drs2, active compounds read low 0.982 | locus YAL030W, strain snc1, active compounds read low 1 | locus YBL061C, strain skt5, active compounds read low 1.01 | locus YBR009C, strain hhf1, active compounds read low 0.993 | locus YBR023C, strain chs3, active compounds read low 1.02 | locus YBR171W, strain sec66, active compounds read low 1.01 | locus YBR231C, strain swc5, active compounds read low 0.996 | locus YBR279W, strain paf1, active compounds read low 0.988 | locus YCL011C, strain gbp2, active compounds read low 1.01 | locus YCL016C, strain dcc1, active compounds read low 1.04 | locus YCL061C, strain MRC1, active compounds read low 1.01 | locus YCL069W, strain vba3, active compounds read low 0.984 | locus YCR088W, strain abp1, active compounds read low 0.995 | locus YDL005C, strain med2, active compounds read low 0.98 | locus YDL040C, strain nat1, active compounds read low 0.989 | locus YDR001C, strain nth1, active compounds read low 0.991 | locus YDR069C, strain doa4, active compounds read low 0.968 | locus YDR137W, strain rgp1, active compounds read low 1.01 | locus YDR159W, strain sac3, active compounds read low 0.966 | locus YDR195W, strain ref2 = 0.973 | locus YDR297W, strain sur2, active compounds read low 0.997 | locus YDR334W, strain swr1, active compounds read low 0.995 | locus YDR335W, strain msn5, active compounds read low 1 | locus YDR392W, strain spt3, active compounds read low 0.943 | locus YEL003W, strain gim4, active compounds read low 0.985 | locus YEL037C, strain rad23, active compounds read low 0.988 | locus YEL061C, strain CIN8 (second series), active compounds read low 0.978 | locus YER015W, strain faa2, active compounds read low 1 | locus YER016W, strain bim1, active compounds read low 1 | locus YER111C, strain swi4, active compounds read low 1 | locus YER155C, strain BEM2 (second series), active compounds read low 0.982 | locus YFR010W, strain ubp6, active compounds read low 0.979 | locus YGL167C, strain pmr1, active compounds read low 1.01 | locus YGL173C, strain kem1, active compounds read low 1 | locus YGL227W, strain vid30, active compounds read low 0.991 | locus YGL240W, strain doc1, active compounds read low 0.993 | locus YGL253W, strain hxk2, active compounds read low 0.992 | locus YHR013C, strain ard1, active compounds read low 1.03 | locus YHR027C, strain rpn1, active compounds read low 0.997 | locus YHR030C, strain SLT2, active compounds read low 1.08 | locus YHR079C, strain IRE1, active compounds read low 1.07 | locus YHR142W, strain chs7, active compounds read low 1.01 | locus YJL092W, strain hpr5, active compounds read low 1.01 | locus YJL095W, strain BCK1 (second series), active compounds read low 1.01 | locus YJL095W, strain BCK1, active compounds read low 1.07 | locus YJL115W, strain asf1, active compounds read low 1 | locus YJL129C, strain trk1, active compounds read low 1.05 | locus YJL154C, strain vps35, active compounds read low 0.99 | locus YJL164C, strain tpk1, active compounds read low 0.99 | locus YJL166W, strain qcr8, active compounds read low 1.02 | locus YJL187C, strain SWE1, active compounds read low 0.984 | locus YJR066W, strain TOR1, active compounds read low 0.993 | locus YKL160W, strain elf1, active compounds read low 1.04 | locus YKR026C, strain gcn3, active compounds read low 1 | locus YKR091W, strain srl3, active compounds read low 1.01 | locus YLL001W, strain dnm1, active compounds read low 1.05 | locus YLL026W, active compounds read low 1 | locus YLL041C, strain sdh2, active compounds read low 0.989 | locus YLR027C, strain aat2, active compounds read low 0.998 | locus YLR113W, strain HOG1, active compounds read low 0.982 | locus YLR221C, strain rsa3, active compounds read low 1.06 | locus YLR258W, strain gsy2, active compounds read low 1 | locus YLR262C, strain YPT6 (second series), active compounds read low 0.997 | locus YLR320W, strain mms22, active compounds read low 1.06 | locus YLR342W, strain FKS1, active compounds read low 0.994 | locus YLR357W, strain rsc2, active compounds read low 1.02 | locus YLR370C, strain arc18, active compounds read low 1.02 | locus YLR384C, strain iki3, active compounds read low 1 | locus YML120C, strain ndi1, active compounds read low 1.03 | locus YMR058W, strain fet3, active compounds read low 0.99 | locus YMR125W, strain sto1, active compounds read low 0.999 | locus YMR129W, active compounds read low 0.984 | locus YMR205C, strain PFK2, active compounds read low 1.04 | locus YMR231W, strain pep5, active compounds read low 0.994 | locus YNL071W, strain lat1, active compounds read low 0.985 | locus YNL183C, strain NPR1, active compounds read low 1.02 | locus YNL209W, strain ssb2, active compounds read low 0.997 | locus YNL248C, strain rpa49, active compounds read low 0.96 | locus YNL322C, strain KRE1 (second series), active compounds read low 1.01 | locus YNR049C, strain mso1, active compounds read low 1.01 | locus YOR001W, strain rrp6, active compounds read low 0.954 | locus YOR070C, strain gyp1, active compounds read low 0.999 | locus YOR080W, strain dia2, active compounds read low 1 | locus YOR083W, strain WHI5, active compounds read low 1.05 | locus YOR106W, strain vam3, active compounds read low 1.03 | locus YOR231W, strain MKK1, active compounds read low 1.04 | locus YOR265W, strain rbl2, active compounds read low 1.01 | locus YOR270C, strain vph1, active compounds read low 1.04 | locus YOR290C, strain snf2, active compounds read low 1.01 | locus YPL051W, strain arl3, active compounds read low 1.01 | locus YPL078C, strain atp4, active compounds read low 1.01 | locus YPL106C, strain sse1, active compounds read low 1 | locus YPL240C, strain hsp82, active compounds read low 1.01 | locus YPL256C, strain CLN2, active compounds read low 1.09
